# According to PubChem BioAssay AID759 (NMMLSC, 2007):
# This is a selection; strong and weak results do not stand in their true shares. Active and inactive are the calls of the source.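 How the source made its calls: active means GTP binding activity at least 20% away from the 100% baseline, either lowered as inhibitor or raised as activator; inconclusive means flagged as likely green fluorescent, judged across all proteins in the well; inactive means the rest.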
# Target: GTPase HRas (Homo sapiens) (UniProt P01112)
# Experiment: HRas wt fluorescent GTP binding changes, either direction – biochemical, wildtype, bead-based flow cytometry, multiplex, primary screen (AID 759);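 further: 0% = unlabeled GTP competition control and 100% = no-compound control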
# Conditions: GST-Ras wt beads, Bodipy-FL-GTP binding, at 10 µM, actives lie on both sides
row,SMILES,GTP binding activity
1,CN1CCCC(OC(=O)C(c2ccccc2)c2ccccc2)C1 (stereo unspecified),inactive: 100%
2,Clc1ccc(Cl)c(NC2=NCC(CBr)S2)c1 (stereo unspecified),inactive: 97%
3,CCN(/C(=N/P(=O)(N1CCOCC1)N1CCOCC1)N1CCOCC1)c1ccc(OC)cc1,inactive: 102%
4,CC1CCN(C(=O)Oc2c(Cl)cc(Cl)c3cccnc23)CC1,inactive: 100%
5,CN(C)C(=O)OCCc1n(C)cc[n+]1C,inactive: 102%
6,COc1ccc(C2=NCC(CBr)S2)cc1 (stereo unspecified),inactive: 98%
7,O=[N+]([O-])c1cc([N+](=O)[O-])c(CCNc2ccccc2)c([N+](=O)[O-])c1,inactive: 100%
8,CCc1nc2c(n1)c1c(non1O)c1c2no[n+]1[O-],inactive: 96%
9,Cc1ccc(NP(=O)(Oc2ccccc2)Oc2ccccc2)nc1,inactive: 100%
10,CC(=O)N1C2C3N(C(C)=O)C1C1N(C(C)=O)C(C(N1C(C)=O)N3C(C)=O)N2C(C)=O,inactive: 97%
11,O=[N+]([O-])c1cccc2n[nH]nc12,inactive: 104%
12,O=[N+]([O-])c1ncn(CCn2ncnc2[N+](=O)[O-])n1,inactive: 96%
13,Cc1cc(SC(NC=O)C(Cl)(Cl)Cl)ncn1 (stereo unspecified),inactive: 100%
14,O=P(Nc1ccccn1)(c1cccc2ccccc12)c1cccc2ccccc12,inactive: 95%
15,Cc1cc(SC(NC(=O)c2ccccc2)C(Cl)(Cl)Cl)nc(C(C)C)n1 (stereo unspecified),inactive: 99%
16,CCC(C)N(CC(C)C)C(=S)SC(NC(C)=O)C(Cl)(Cl)Cl (stereo unspecified),inactive: 102%
17,COP1(=S)c2c(C)nn(CCC#N)c2N=C(c2ccc(F)cc2)N1C (stereo unspecified),inactive: 98%
18,O=C(COc1ccccc1)OC1CN2CCC1CC2 (stereo unspecified),inactive: 103%
19,COc1ccc(N/C(=N/P(=O)(N2CCOCC2)N2CCOCC2)N2CCOCC2)cc1,inactive: 99%
20,Cc1c2c(nc3ccccc13)SC(C(Cl)Cl)C2 (stereo unspecified),inactive: 101%
21,Cc1cc(=O)[nH]c(N[N+](=O)[O-])n1,inactive: 97%
22,COc1ccc2nc(NP(=O)(c3ccccc3)c3ccccc3)sc2c1,inactive: 98%
23,ClCCSc1nnc(-c2cccnc2)o1,inactive: 104%

row,SMILES,GTP binding activity
1,O=[N+]([O-])c1cc([N+](=O)[O-])c(-c2ccn[nH]2)s1,inactive: 100%
2,CC(C)NC(=O)NP(=O)(Oc1ccccc1)Oc1ccccc1,inactive: 97%
3,CCN(CC)C(=S)SC(NC=O)C(Cl)(Cl)Cl (stereo unspecified),inactive: 98%
4,Cc1ccc2nc3c(c(C)c2c1)CC(C(Cl)Cl)S3 (stereo unspecified),inactive: 97%
5,CCOP1(=S)c2c(C)nn(CCC#N)c2N=C(c2ccc(F)cc2)N1C (stereo unspecified),inactive: 95%
6,O=[N+]([O-])c1ccc2c(c1)nnn2O,inactive: 102%
7,O=P(Nc1nccs1)(Oc1ccccc1)Oc1ccccc1,inactive: 98%
8,O=P(Nc1nccs1)(c1ccccc1)c1nc2ccccc2s1 (stereo unspecified),inactive: 97%
9,CCOP1(=S)c2c(C)nn(CCC#N)c2N=C(c2ccccc2F)N1C (stereo unspecified),inactive: 98%
10,Cc1ccc(NCCc2c([N+](=O)[O-])cc([N+](=O)[O-])cc2[N+](=O)[O-])cc1,inactive: 98%
11,CCOP(=O)(Nc1cccc2ccccc12)OCC,inactive: 102%
12,COc1cc(C2NCCC3(OCCO3)C2(C)C)cc(OC)c1OC (stereo unspecified),inactive: 95%
13,COc1cc(C(=O)NCC2(N3CCOCC3)CCCCC2)cc(Cl)c1OC(C)C,inactive: 96%
14,Cc1cccc(OCC(=O)OC2CN3CCC2CC3)c1 (stereo unspecified),inactive: 104%
15,CC(C)/C=N\N=C(\N)N[N+](=O)[O-],inactive: 95%
16,O=P1(Nc2ccccn2)COc2ccccc2OC1,inactive: 101%
17,Clc1n[nH]nc1-c1nn[nH][15n]1,inactive: 103%
18,O=P1(Nc2ncccn2)COc2ccccc2OC1,inactive: 102%
19,Cc1ccc(OCC(=O)OC2CN3CCC2CC3)cc1 (stereo unspecified),inactive: 103%
20,O=P1(Nc2ccc(Br)cn2)COc2ccccc2OC1,inactive: 100%
21,CC1CCC(C(C)C)C(OP(=O)(Nc2ccccn2)c2ccccc2)C1 (stereo unspecified),inactive: 95%
22,Cc1nn(-c2ccccc2)c2c1P(=O)(N1CCOCC1)N(C)C(c1ccccc1)=N2 (stereo unspecified),inactive: 102%
23,CN(C)C1(CNC(=O)c2ccc(S(C)(=O)=O)cc2)CCCCC1,inactive: 98%
